Biological target: Serotonin 5-HT2C (Homo sapiens, UniProt P28335)
Assay: biochemical
Format: binding

Sequences of proteins named here, by UniProt entry; tags and fusion partners are left off. Residues count along the entry.
UniProt P28335, 33-458: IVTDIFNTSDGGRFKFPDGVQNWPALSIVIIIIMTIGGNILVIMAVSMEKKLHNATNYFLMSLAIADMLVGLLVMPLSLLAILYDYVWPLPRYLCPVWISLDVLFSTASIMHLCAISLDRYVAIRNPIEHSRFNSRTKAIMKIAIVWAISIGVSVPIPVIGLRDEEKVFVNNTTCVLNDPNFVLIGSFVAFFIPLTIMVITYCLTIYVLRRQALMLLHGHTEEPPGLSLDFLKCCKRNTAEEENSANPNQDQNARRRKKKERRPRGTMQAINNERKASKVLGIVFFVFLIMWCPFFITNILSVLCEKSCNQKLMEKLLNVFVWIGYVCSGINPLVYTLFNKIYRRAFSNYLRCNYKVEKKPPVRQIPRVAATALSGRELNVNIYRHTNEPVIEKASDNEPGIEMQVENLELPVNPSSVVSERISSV

CNC(C)Cc1ccc2c(c1)OCO2 (single isomer, unassigned) [R-MDMA, R(−)-3,4-methylenedioxymethamphetamine]
IC50: 2600 nM
Ki: 1360 nM

From US20240082212A1, “USE OF MDMA FOR TREATMENT OF STRESS-RELATED DISORDERS” (priority 2022, published 2024)
